## Antibody variant affinities, Ab-95 light chain, assay 2

Values reported by Engelhart et al. 2022, doi:10.1038/s41597-022-01779-4 (FLAb copy).

All variants were tested on one target, the spike HR2 peptide PDVDLGDISGINAS (SARS-CoV-2).

Parent: Ab-95, a human scFv built as VH, a 15-residue (Gly4Ser)3 linker, VL. Only the CDRs of the light chain vary.
VH: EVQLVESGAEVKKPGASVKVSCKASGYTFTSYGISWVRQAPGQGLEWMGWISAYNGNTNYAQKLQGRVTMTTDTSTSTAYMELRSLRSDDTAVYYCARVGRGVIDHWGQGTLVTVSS
VL: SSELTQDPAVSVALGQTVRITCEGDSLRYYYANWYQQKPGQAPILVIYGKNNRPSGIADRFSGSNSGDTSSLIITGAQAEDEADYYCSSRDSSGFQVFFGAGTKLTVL

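The parent was found by panning a naive human phage display library on the peptide. AAYL52 was designed without a model: most single CDR substitutions and a random sample of double and triple ones. AlphaSeq pools MATa yeast showing the antibodies with MATalpha yeast showing the peptide. The frequency of each diploid, read from paired DNA barcodes, reflects how well the two displayed proteins bind. The ratio of observed to expected reads was calibrated, replicate by replicate, on BCL2-family standards whose Kd was known from biolayer interferometry. Each pool was mated in three replicate cultures.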

Changes read parent residue, position, new residue, counted from the first residue of the VL shown. This list gathers variants with a substitution at D25 (VL, numbered from residue 1). Kd is apparent (estimated from mating counts) and averaged on the log scale over replicates with a signal. Smaller is tighter. "no signal" means that the variant was in the library but no mating with the target was seen in any replicate; the authors take this as a sign of poor binding, and no number exists. As a blank, each scFv also met three strains without target: over library AAYL52, 28% of these pairings were detected, typically at 8.2 µM and seldom below 800 nM. For each scFv, signals with the empty controls are counted beside the result.

For D25Q/Y29H, the assay gave 42 nM (3 of 3 replicates; controls 4 of 9).
For D25M/V97Q, the assay gave 880 nM (3 of 3 replicates; controls 3 of 9).
For E23W/D25G/G49I, the assay gave 32 µM (1 of 3 replicates; controls 2 of 9).
For G24R/D25P/N52W, the assay gave 750 nM (3 of 3 replicates; controls 5 of 9).
For D25L/S92L, the assay gave 810 nM (3 of 3 replicates; controls 3 of 9).
For D25L, the assay gave 230 nM (3 of 3 replicates; controls 0 of 9).
For E23C/D25L/R53M, the assay gave 9.1 µM (1 of 3 replicates; controls 2 of 9).
For D25P/Y30L/Y31N, the assay gave 52 nM (3 of 3 replicates; controls 4 of 9).
For D25T/Y29L/V97I, the assay gave 4.7 µM (3 of 3 replicates; controls 3 of 9).
For D25M/Y31F/F98S, the assay gave 2.0 µM (3 of 3 replicates; controls 0 of 9).
For D25I/Y29F, the assay gave 1.4 µM (2 of 3 replicates; controls 1 of 9).
For E23V/D25C/K50L, the assay gave 6.3 µM (1 of 3 replicates; controls 3 of 9).
For D25G/Y30R/V97S, the assay gave 250 nM (3 of 3 replicates; controls 0 of 9).
For D25G/Y30W/V97D, the assay gave 8.3 µM (2 of 3 replicates; controls 3 of 9).
For D25K/G49Q/S55A, the assay gave 1.4 µM (3 of 3 replicates; controls 2 of 9).
For D25M/A32L/R90D, the assay gave no signal (0 of 3 replicates; controls 1 of 9).
For D25M/Y31W/R53S, the assay gave 16 µM (2 of 3 replicates; controls 5 of 9).
For D25S/N33W, the assay gave 6.2 nM (3 of 3 replicates; controls 0 of 9).
For D25T/L27P/S55T, the assay gave 890 nM (3 of 3 replicates; controls 2 of 9).
For D25E/N52K/F98Q, the assay gave no signal (0 of 3 replicates; controls 1 of 9).
For D25C/A32S/S92G, the assay gave 11 µM (2 of 3 replicates; controls 2 of 9).
For D25V/K50I/S55R, the assay gave 3.9 µM (3 of 3 replicates; controls 4 of 9).
For D25M/R28Q/N52D, the assay gave no signal (0 of 3 replicates; controls 1 of 9).
For D25W/N52L/S55K, the assay gave 14 µM (2 of 3 replicates; controls 0 of 9).
For G24P/D25E/S93G, the assay gave 9.4 µM (2 of 3 replicates; controls 5 of 9).
For D25C/N52F/P54E, the assay gave 3.8 µM (1 of 3 replicates; controls 2 of 9).
For G24L/D25F/S26G, the assay gave 740 nM (1 of 3 replicates; controls 4 of 9).
For D25R/S26Y/N33S, the assay gave 19 µM (3 of 3 replicates; controls 5 of 9).
For D25Y/Y30V/V97C, the assay gave 180 nM (3 of 3 replicates; controls 5 of 9).
For D25P/A32V/R90T, the assay gave 3.5 µM (3 of 3 replicates; controls 1 of 9).
For D25Y/F98W, the assay gave 180 nM (3 of 3 replicates; controls 3 of 9).